Earlier results in patent US20130143873A1 (priority 2010, published 2013).

System: ALS patients
Conditions: initial trials; cited from earlier work

Nc1nc2ccc(OC(F)(F)F)cc2s1 [riluzole]
increase in survival (mean): three
